In patent US20200397913A1, “AXL-SPECIFIC ANTIBODY-DRUG CONJUGATES FOR CANCER TREATMENT” (GENMAB A/S, priority 2015, published 2020):
“Also recorded” adds a separate entry of the source.

Legend:
LU2511 tumors = assay: Erlotinib-resistant NSCLC PDX model LU2511; assay type: in vivo, BALB/c nude mice; conditions: LU2511, 50 mg/kg per os daily for 2 weeks
LU0858 tumors = assay: Erlotinib-resistant NSCLC PDX model LU0858; assay type: in vivo, BALB/c nude mice; conditions: LU0858, 50 mg/kg daily for 14 days
LU1868 tumors = assay: Erlotinib-resistant NSCLC PDX model LU1868; assay type: in vivo, BALB/c nude mice; conditions: LU1868, 50 mg/kg daily for 14 days
LXFA 526 tumors = assay: Erlotinib-resistant NSCLC PDX model LXFA 526; assay type: in vivo, NMRI nu/nu mice; conditions: LXFA 526, 50 mg/kg daily for 14 days
LXFA 677 tumors = assay: NSCLC PDX model LXFA 677; assay type: in vivo, NMRI nu/nu mice; conditions: LXFA 677, 50 mg/kg daily for 14 days
LXFA 677_3 tumors = assay: NSCLC PDX model LXFA 677_3 with acquired resistance to erlotinib; assay type: in vivo, NMRI nu/nu mice; conditions: LXFA 677_3, 50 mg/kg daily for 14 days

## C#Cc1cccc(Nc2ncnc3cc(OCCOC)c(OCCOC)cc23)c1 [erlotinib, reference compound]
LU2511 tumors
  effect of erlotinib on tumor growth / Erlotinib resistance: did not induce anti-tumor activity
LU0858 tumors
  effect of erlotinib on tumor growth / Erlotinib resistance: had no effect on tumor growth
LU1868 tumors
  effect of erlotinib on tumor growth / Erlotinib resistance: had no effect on tumor growth
LXFA 526 tumors
  effect of erlotinib on tumor growth / Erlotinib resistance: had no effect on tumor growth
LXFA 677 tumors
  effect of erlotinib on tumor growth / Erlotinib resistance: induced partial tumor regression; also recorded: sensitive
LXFA 677_3 tumors
  effect of erlotinib on tumor growth / Erlotinib resistance: had no effect on tumor growth
